# Only a part is listed here, and it is no random draw. Calls of active or inactive are those of the source. Rule as the data show it: active = inhibition above about 25% (passing the limit was not always enough); inactive = the rest.
# Tested on: BasE (2,3-dihydroxybenzoate-AMP ligase), Acinetobacter baumannii ATCC 17978
# Assay: inhibitors of A. baumannii BasE – biochemical, Acinetobacter baumannii ATCC 17978, fluorescence polarization, primary screen (AID 485350);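 also: 0% = negative plate control signal and 100% = positive plate control signal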
# Conditions: purified BasE, fluorescence polarization binding displacement; hits give high values; concentration not given here
row,SMILES,inhibition
1,CN(CCCl)CCCl,inactive: -1.68%
